{"source": "paper PMC11294477", "binders": {"B1": {"name": "Wild-type Gi1 with internal GFP and four alanines inserted into helix α5 (ins4A), P63096 Q306K (protein)", "chain": "MGCTLSAEDKAAVERSKMIDRNLREDGEKAAREVKLLLLGAGESGKSTIVKQMKIIHEAGYSEEECKQYKAVVYSNTIQSIIAIIRAMGRLKIDFGDSARADDARQLFVLAGAAEEGFMTAELAGVIKRLWKDSGVQACFNRSREYQLNDSAAYYLNDLDRIAQPNYIPTQQDVLRTRVKTTGIVETHFTFKDLHFKMFDVGGQRSERKKWIHCFEGVTAIIFCVALSDYDLVLAEDEEMNRMHESMKLFDSICNNKWFTDTSIILFLNKKDLFEEKIKKSPLTICYPEYAGSNTYEEAAAYIQCKFEDLNKRKDTKEIYTHFTCATDTKNVQFVFDAVTDVIIKNNLKDCGLF"}}, "biological_target": "T1, Endogenous latrophilin-2 (LPHN2/ADGRL2), O95490", "T1 chain": "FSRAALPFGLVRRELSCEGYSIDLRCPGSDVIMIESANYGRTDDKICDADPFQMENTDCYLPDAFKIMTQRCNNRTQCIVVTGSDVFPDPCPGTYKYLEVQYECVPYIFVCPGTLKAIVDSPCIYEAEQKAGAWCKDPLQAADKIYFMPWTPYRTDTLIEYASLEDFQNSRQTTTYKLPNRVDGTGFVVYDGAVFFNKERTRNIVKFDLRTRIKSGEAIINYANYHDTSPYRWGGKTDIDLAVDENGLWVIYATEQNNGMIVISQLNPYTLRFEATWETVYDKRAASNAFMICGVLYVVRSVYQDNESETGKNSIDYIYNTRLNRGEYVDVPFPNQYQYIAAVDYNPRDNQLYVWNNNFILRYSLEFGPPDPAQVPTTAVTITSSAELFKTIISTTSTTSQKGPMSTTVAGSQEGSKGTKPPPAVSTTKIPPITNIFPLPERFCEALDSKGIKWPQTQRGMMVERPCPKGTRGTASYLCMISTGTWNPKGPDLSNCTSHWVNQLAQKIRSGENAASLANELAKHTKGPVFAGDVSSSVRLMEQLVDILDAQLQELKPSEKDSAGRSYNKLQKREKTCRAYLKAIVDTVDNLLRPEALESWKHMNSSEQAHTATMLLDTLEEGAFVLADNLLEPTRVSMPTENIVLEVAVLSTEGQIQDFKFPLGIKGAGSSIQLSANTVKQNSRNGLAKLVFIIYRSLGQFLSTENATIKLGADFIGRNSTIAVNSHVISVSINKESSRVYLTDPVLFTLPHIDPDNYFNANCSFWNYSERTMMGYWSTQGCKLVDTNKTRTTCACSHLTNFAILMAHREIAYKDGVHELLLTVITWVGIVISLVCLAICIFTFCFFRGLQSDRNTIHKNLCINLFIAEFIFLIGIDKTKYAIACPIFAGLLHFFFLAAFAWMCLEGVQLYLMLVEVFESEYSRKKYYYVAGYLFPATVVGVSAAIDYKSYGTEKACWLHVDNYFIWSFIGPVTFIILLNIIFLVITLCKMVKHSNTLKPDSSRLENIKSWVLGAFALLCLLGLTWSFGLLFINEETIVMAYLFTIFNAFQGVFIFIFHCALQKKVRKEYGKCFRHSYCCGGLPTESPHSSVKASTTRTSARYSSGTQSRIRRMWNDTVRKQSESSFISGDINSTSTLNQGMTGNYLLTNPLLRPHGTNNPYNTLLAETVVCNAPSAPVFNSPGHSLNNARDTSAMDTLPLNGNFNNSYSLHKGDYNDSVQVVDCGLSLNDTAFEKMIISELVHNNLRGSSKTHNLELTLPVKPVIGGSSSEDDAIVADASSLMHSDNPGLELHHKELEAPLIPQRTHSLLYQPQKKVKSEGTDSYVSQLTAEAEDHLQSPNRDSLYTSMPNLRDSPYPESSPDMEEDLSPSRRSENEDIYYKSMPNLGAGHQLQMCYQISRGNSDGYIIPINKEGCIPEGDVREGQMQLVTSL", "assay": "co-immunoprecipitation (GFP-Trap, IB: LPHN2)", "details": "chain shown with the change, read off a plot", "data": [{"binder": "B1", "values": [{"measurement": "response (LPHN2 (normalized))", "setting": "Flow, FSS for 2 min", "value": 1}, {"measurement": "response (LPHN2 (normalized))", "setting": "Static", "value": 0.45}]}]}
